Data published in patent publication US20120157500A1, “JAK INHIBITION BLOCKS RNA INTERFERENCE ASSOCIATED TOXICITIES” (priority 2009, published 2012).

Conditions: in vivo

## C[C@@H]1CCN(C(=O)CC#N)C[C@@H]1N(C)c1ncnc2[nH]ccc12 [CP-690550]
  adverse effects of treatment alone: no adverse effects
